From patent publication US8252329B2

Legend:
[1] = PK of sublingual alfentanil formulation vs IV (Example 12); conditions: Beagle dog
[2] = cited from earlier work
[3] = PK of sublingual fentanyl formulations vs IV Sublimaze (Example 11); conditions: Beagle dog; IV bolus Sublimaze, 70 μg fentanyl base; n=3
[4] = Bioavailability and PK of sufentanil, sublingual formulation #44 vs IV (Example 7); conditions: Beagle dog, IV bolus
[5] = PK of sufentanil after sublingual solution instillation or oral ingestion of NanoTab vs IV (Examples 8, 9); conditions: Beagle dog
[6] = PK of sufentanil from fast, intermediate and slow sublingual formulations vs IV (Example 10); conditions: Beagle dog; IV bolus Sufenta, 5 μg sufentanil base; n=3
[7] = PK of sufentanil from NanoTab formulations in human volunteers, crossover clinical study (Example 13); conditions: IV infusion, 5 μg, normalized by literature IV half-life 148 min
[8] = IV bolus Alfenta, 253 μg alfentanil base, n=3
[9] = IV bolus Sufenta, 5 μg sufentanil base
[10] = sublingual instillation of solution, 5 μg, n=6

CCC(=O)N(c1ccccc1)C1(COC)CCN(CCn2nnn(CC)c2=O)CC1
Plasma Half-life [1, 8]: 4.4 min | Tonset (time to reach 50% of Cmax) [1, 8]: 0.5 ± 0.05 min | Therapeutic Time Ratio ([1]; IV bolus, 253 μg, normalized by published IV half-life 104 min, listed as alfentanil): 0.04 | Solubility in water [2]: 130000 µg/mL (≈ 312000 µM) | logP (o/w) [2]: 0.006 | pKa [2]: 6.5

CCC(=O)N(c1ccccc1)C1CCN(CCc2ccccc2)CC1
Solubility in water [2]: 200 µg/mL (≈ 594 µM) | logP (o/w) [2]: 2.93 | Tonset (time to reach 50% of Cmax) [3]: 0.6 ± 0.0 min

CCC(=O)N(c1ccccc1)C1(COC)CCN(CCc2cccs2)CC1
Tonset (time to reach 50% of Cmax) ([4]; 5 μg sufentanil base, n=3): 0.05 ± 0.06 min | Therapeutic Time Ratio ([4]; 5 μg, time above 50% of Cmax / literature IV half-life 139 min, listed as sufentanil): 0.05 | Cmax [5, 9]: 594.7 ± 98.1 pg/mL | Tonset (time to reach 50% of Cmax) [5, 9]: 0.5 ± 0.03 min | coefficient of variation of Cmax ([5]; sublingual instillation of solution, 5 μg): 72% | Cmax [5, 10]: 209.3 ± 165.5 pg/mL | Tonset (time to reach 50% of Cmax) [5, 10]: 2.7 ± 1.3 min | F (bioavailability compared to IV) ([5]; sublingual instillation of solution, 5 μg, n=6, listed as Sufentanil solution): 40.0 ± 32.5% | F (bioavailability compared to IV) ([5]; sublingual instillation of solution, 5 μg, n=6, listed as sufentanil): 40% and 40.0±32.5% | Solubility in water [2]: 97 µg/mL (≈ 251 µM) | logP (o/w) [2]: 3.38 | Cmax [6]: 1002.1 ± 149.1 pg/mL | Plasma Half-life [6]: 7.9 ± 2.5 min | Tonset (time to reach 50% of Cmax) [6]: 0.6 ± 0.0 min | Therapeutic Time Ratio [7]: 0.067

Converted amounts (≈) assume the structure as drawn. “And” between values parts separate entries of the source, which are not always exact repeats. Identical values can stand only once. Only a part of the results on these compounds is given; other tests are left out.
